Literature values in patent US11034935B2, “Liver organoid, uses thereof and culture method for obtaining them” (Koninklijke Nederlandse Akademie van Wetenschappen, priority 2010, dated 2021).

Molecular target: T1, ALK5 (TGF-β R1) (Homo sapiens, UniProt P36897)
T1 sequence (P36897 34-503): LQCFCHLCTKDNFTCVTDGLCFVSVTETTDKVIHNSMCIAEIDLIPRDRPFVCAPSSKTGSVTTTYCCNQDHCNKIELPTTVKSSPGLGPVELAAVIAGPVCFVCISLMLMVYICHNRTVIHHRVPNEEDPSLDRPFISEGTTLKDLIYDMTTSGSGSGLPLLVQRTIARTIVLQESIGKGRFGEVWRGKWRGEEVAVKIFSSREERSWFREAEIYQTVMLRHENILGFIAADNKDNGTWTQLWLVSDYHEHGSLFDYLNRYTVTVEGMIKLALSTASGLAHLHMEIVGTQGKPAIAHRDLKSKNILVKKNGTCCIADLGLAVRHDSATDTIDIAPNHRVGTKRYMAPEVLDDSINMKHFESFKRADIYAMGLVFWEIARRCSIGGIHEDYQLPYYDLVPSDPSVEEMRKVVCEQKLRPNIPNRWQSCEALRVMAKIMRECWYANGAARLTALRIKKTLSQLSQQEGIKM
Conditions: at high concentrations, approximate 10 uM or more; cited from earlier work

For `C[S+]([O-])c1ccc(-c2nc(-c3ccc(F)cc3)c(-c3ccncc3)[nH]2)cc1` (stereo not shown) [SB-203580], the “inhibition of ALK5” value is given as “thought to inhibit ALK5”.
